Measured values published in article PMC10354055, “An optimized Nurr1 agonist provides disease-modifying effects in Parkinson’s disease models” (Nature Communications, 2023).

The chains behind the UniProt entries cited, without tags or fusion partners. Residues count along the entry.
UniProt Q06219, 360-595 limits assumed: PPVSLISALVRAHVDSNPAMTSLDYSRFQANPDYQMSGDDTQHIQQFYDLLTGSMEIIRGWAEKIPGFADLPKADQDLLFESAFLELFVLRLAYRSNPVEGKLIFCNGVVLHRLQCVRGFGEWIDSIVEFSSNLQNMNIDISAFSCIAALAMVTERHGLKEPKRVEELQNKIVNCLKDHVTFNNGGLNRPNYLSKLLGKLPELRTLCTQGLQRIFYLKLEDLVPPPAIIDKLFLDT

Molecular target: Nurr1-LBD (Mus musculus, UniProt Q06219)
Test: Luciferase reporter assay, Nurr1-LBD, SK-N-BE(2)C cells
Type: cell-based
Details: Nurr1 activation; for Maximum fold activity: Supplementary Table 1; for EC50: Supplementary Table 1, values in µM

Clc1ccc2c(NCCN3CCN(c4ccnc(-n5ccnc5)n4)CC3)ccnc2c1
Maximum fold activity: 4.64 ± 0.21 fold | EC50: 1.32 µM

Cc1cc(N2CCSCC2)nc(N(CCCNc2ccnc3cc(Cl)ccc23)Cc2cccs2)n1
Maximum fold activity: 5.29 ± 0.06 fold | EC50: 1.54 µM
